{"sequences": {"note": "Sequences of proteins named here, by UniProt entry; tags and fusion partners are left off. Residues count along the entry.", "UniProt O42275, 24-633 limits assumed": "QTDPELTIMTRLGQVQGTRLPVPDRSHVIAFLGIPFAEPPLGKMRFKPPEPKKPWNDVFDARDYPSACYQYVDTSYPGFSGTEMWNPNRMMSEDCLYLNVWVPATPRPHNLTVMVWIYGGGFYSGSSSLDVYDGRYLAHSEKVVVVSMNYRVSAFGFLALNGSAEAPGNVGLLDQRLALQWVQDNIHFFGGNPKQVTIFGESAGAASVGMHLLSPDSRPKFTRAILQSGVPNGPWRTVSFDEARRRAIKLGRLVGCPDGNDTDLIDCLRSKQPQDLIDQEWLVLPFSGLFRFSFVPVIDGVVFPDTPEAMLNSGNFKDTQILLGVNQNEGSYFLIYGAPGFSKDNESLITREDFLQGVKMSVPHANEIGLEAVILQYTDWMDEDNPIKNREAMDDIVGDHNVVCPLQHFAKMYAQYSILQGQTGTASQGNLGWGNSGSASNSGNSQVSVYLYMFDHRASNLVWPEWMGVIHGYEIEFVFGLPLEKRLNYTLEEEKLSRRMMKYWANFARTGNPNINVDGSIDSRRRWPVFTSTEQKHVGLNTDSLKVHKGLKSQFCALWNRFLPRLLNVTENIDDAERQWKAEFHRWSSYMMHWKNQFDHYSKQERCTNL", "UniProt P81908, whole entry": "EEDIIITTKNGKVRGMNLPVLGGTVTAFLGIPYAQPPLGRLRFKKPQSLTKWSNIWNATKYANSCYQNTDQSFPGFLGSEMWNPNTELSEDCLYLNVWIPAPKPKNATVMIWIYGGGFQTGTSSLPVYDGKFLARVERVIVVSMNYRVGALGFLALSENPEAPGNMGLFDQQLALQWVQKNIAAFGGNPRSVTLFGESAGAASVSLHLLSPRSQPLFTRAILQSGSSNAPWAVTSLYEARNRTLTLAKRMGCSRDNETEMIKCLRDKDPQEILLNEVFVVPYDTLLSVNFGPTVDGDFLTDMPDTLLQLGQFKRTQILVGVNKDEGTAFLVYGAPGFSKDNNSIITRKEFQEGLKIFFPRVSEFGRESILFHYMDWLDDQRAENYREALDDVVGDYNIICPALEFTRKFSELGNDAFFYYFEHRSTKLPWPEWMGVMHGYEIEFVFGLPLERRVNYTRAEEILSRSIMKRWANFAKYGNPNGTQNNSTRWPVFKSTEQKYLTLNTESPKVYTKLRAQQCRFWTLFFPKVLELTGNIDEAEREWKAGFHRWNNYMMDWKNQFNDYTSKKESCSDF"}, "source": "ChEMBL document CHEMBL3044733", "about": "“Synthesis of novel phosphorothioates and phosphorodithioates and their differential inhibition of cholinesterases” (2009)", "key": {"Acetylcholinesterase": {"target": "Acetylcholinesterase (Electrophorus electricus, UniProt O42275)", "assay": "Inhibition of Electrophorus electricus (electric eel) acetylcholinesterase by Ellman method"}, "Cholinesterase": {"target": "Cholinesterase (Equus caballus, UniProt P81908)", "assay": "Inhibition of Equus caballus (horse) serum butyrylcholinesterase by Ellman's method"}}, "data": [{"smiles": "CCOP(=O)(OCC)SCCN1C(=O)c2ccccc2C1=O", "values": [{"measurement": "IC50", "setting": "Acetylcholinesterase", "value": 1180, "unit": "nM"}, {"measurement": "IC50", "setting": "Cholinesterase", "value": 220, "unit": "nM"}]}]}
